Where two headings read alike, the source gives them in different places.
Tested on: wild-type (wt) Salmonella enterica serovar Typhimurium strain SL1344
Experimental: MIC values were determined by broth microdilution according to standard protocols with a few modifications ([26]). An overnight bacterial cell culture, supplemented with the appropriate antibiotic when needed, was diluted 1:100 in fresh MHB and grown to OD600 0.5. The obtained culture was diluted to ∼10^5 cfu/ml or 10^6 cfu/ml, as indicated, in non-cation-adjusted MHB. Subsequently, 190 μl bacterial solution was dispensed into a 96-well plate (Thermo Fisher Scientific) along with 10 μl of a 20x PPNA, PNA or peptide working solution. Growth was monitored by measuring the OD at 600 nm every 20 min in a Synergy H1 plate reader (Biotek) with continuous double-orbital shaking (237 cpm) at 37°C for 24 h.

For `CC[C@H](C)[C@H](NC(=O)[C@H](CCCCN)NC(=O)[C@@H](NC(=O)[C@H](CCC(N)=O)NC(=O)[C@@H](N)CCCNC(=N)N)[C@@H](C)CC)C(=O)N[C@@H](Cc1c[nH]c2ccccc12)C(=O)N[C@@H](Cc1ccccc1)C(=O)N[C@@H](CCC(N)=O)C(=O)N[C@@H](CC(N)=O)C(=O)N[C@@H](CCCNC(=N)N)C(=O)N[C@@H](CCCNC(=N)N)C(=O)N[C@@H](CCSC)C(=O)N[C@@H](CCCCN)C(=O)N[C@@H](Cc1c[nH]c2ccccc12)C(=O)N[C@@H](CCCCN)C(=O)N[C@@H](CCCCN)C(=O)O` [ANT, reference compound], the “MIC” value (Table 1, ∼10^5 cfu/ml, non-cation-adjusted MHB, 37°C, 24 h) was 1.5 µg/mL and the “MIC” value (wild-type (wt) serovar Typhimurium strain SL1344, 24 h) was 0.7 µM.

Source: article PMC8096218, “Global RNA profiles show target selectivity and physiological effects of peptide-delivered antisense antibiotics” (Nucleic Acids Research, 2021)
